Test results taken from DBAASP.

Tests used:
[1] = test system: Escherichia coli K-12; test: ≥ marks a high value that may be exact or a test limit, other limits are often not marked, values filed in µg/mL are converted to µM
[2] = test system: Staphylococcus aureus ATCC 12600; test: as above

SMILES | MIC [1] [µM] | MIC [2] [µM]
CC(C)C[C@H](NC(=O)[C@H](CCCCN)NC(=O)[C@H](CCCCN)NC(=O)[C@H](Cc1ccccc1)NC(=O)[C@H](Cc1ccccc1)NC(=O)[C@@H](N)CCCCN)C(=O)N[C@@H](CCCCN)C(=O)N[C@@H](CCCCN)C(=O)N[C@@H](C)C(=O)N[C@H](C(=O)N[C@@H](CCCCN)C(=O)N[C@@H](CCCCN)C(=O)NCC(=O)N[C@@H](Cc1ccccc1)C(=O)N[C@@H](CCCCN)C(=O)N[C@@H](CCCCN)C(=O)N[C@@H](Cc1ccccc1)C(=O)N[C@@H](C)C(=O)N[C@@H](CCCCN)C(=O)N[C@H](C(=O)O)C(C)C)C(C)C [KFFKKLKKAVKKGFKKFAKV] | 8 (≈ 19.2 µg/mL) | ≥ 128
CC[C@H](C)[C@H](NC(=O)[C@H](C)NC(=O)[C@H](CCCCN)NC(=O)[C@H](CC(C)C)NC(=O)[C@H](C)NC(=O)[C@@H](NC(=O)[C@H](Cc1cnc[nH]1)NC(=O)[C@H](CC(C)C)NC(=O)[C@@H](NC(=O)[C@@H](NC(=O)[C@H](CCCCN)NC(=O)[C@@H](NC(=O)[C@H](C)NC(=O)[C@H](CO)NC(=O)[C@H](CCCCN)NC(=O)[C@H](Cc1ccccc1)NC(=O)[C@@H](NC(=O)[C@H](CCCCN)NC(=O)[C@H](CC(C)C)NC(=O)[C@H](Cc1ccccc1)NC(=O)[C@H](CO)NC(=O)[C@H](CCCCN)NC(=O)[C@H](Cc1c[nH]c2ccccc12)NC(=O)[C@@H](N)CCCCN)[C@@H](C)O)C(C)C)[C@@H](C)O)C(C)C)[C@@H](C)O)C(=O)N[C@@H](CO)C(=O)N[C@@H](CO)C(=O)O [KWKSFLKTFKSAVKTVLHTALKAISS] | 4 (≈ 11.7 µg/mL) | 16 (≈ 46.7 µg/mL)

≈ marks a conversion by molar mass, not a printed value.
